{"source": "patent US12329774B2", "about": "“Method and composition for enhancing the quality and benefits of sleep” (priority 2020, dated 2025)", "system": "MDA, SOD, CAT, GSHPx", "test": "Brain antioxidant status in caffeine-induced wakefulness mice", "type": "in vivo", "conditions": "caffeine followed by saline (C) or test article (20 mg theanine/kg), means and standard deviations", "experimental": "Animals were anesthetized with urethane ([…], i.p., Sigma U2500). Body temperature was maintained between 36.5 and 37° C. with homeothermic blanket. Mice were stabilized under a stereotaxic frame (World Precision Instruments, Berlin; Germany) and an incision was made on the skin along the anterior/posterior line of the skull. The left […] was removed gently with a dental drill (Marothon-3; Korea). Two Ag-AgCl sphere electrodes were placed over the left hemisphere with the reference electrode attached on the pinna. The mice received drug injections at 13:20 and 13:30 according to the predetermined treatment plan as follows: • 1) Control: Saline followed by saline; • 2) C (Positive Control): […] Brains were rapidly removed, frozen on dry ice and stored at -80° C. until analyses could be performed. Biochemical and Oxidative Stress Markers-Serum melatonin, serotonin, and dopamine were measured using ELISA kits. Brain levels of malondialdehyde (MDA) were measured by HPLC. Brain activities of superoxide dismutase (SOD), catalase (CAT) and glutathione peroxidase (GSHPx) were measured using ELISA kits for each analyte.", "data": [{"smiles": "Cn1c(=O)c2c(ncn2C)n(C)c1=O", "note": "[C, Caffeine, reference compound]", "values": [{"measurement": "MDA", "value": "2.83 + 0.13a nmol/g"}]}]}
